Assay results taken from publication PMC11588046 (Proceedings of the National Academy of Sciences of the …, 2024).

Molecular target: T1, ACVR1 (ALK2) (Homo sapiens, UniProt Q04771)
T1 sequence (Q04771 21-509): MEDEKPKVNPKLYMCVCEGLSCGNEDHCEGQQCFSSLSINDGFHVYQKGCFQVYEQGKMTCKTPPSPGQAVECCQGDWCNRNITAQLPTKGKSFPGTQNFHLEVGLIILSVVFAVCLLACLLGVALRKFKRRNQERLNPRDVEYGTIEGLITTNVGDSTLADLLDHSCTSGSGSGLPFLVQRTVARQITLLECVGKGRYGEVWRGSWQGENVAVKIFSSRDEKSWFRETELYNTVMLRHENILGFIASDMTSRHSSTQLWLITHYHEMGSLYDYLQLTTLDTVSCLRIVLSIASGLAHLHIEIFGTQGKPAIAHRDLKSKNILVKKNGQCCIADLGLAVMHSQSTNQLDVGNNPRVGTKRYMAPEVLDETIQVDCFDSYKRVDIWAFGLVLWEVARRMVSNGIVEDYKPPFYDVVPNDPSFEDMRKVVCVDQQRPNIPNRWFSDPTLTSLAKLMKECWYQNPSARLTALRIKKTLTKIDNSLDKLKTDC
Conditions: read-out: ALK2 Kd; LanthaScreen binding; N/A, not active at 1 µM

SMILES | Kd [nM]
CNC(=O)[C@H]1C[C@H](n2c(-c3cc(OC)c(OC)c(OC)c3)nc3ccc(C(=O)NCC4CCN(C)CC4)cc32)C1 [CDD-2282] | 5.9
CNC(=O)[C@H]1C[C@H](n2c(-c3cc(OC)cc(OC)c3)nc3ccc(C(=O)NCCCN4CCN(c5ccccc5)CC4)cc32)C1 [CDD-2314] | 6.9
CNC(=O)CCCn1c(-c2cc(OC)c(OC)c(OC)c2)nc2ccc(C(=O)NCCCN3CCN(c4ccccc4)CC3)cc21 [CDD-2316] | 51.4
CNC(=O)[C@H]1C[C@H](n2c(-c3ccccc3)nc3ccc(C(=O)NCCCN4CCN(c5ccccc5)CC4)cc32)C1 [CDD-2317] | 57.4
CNC(=O)[C@H]1C[C@H](n2c(-c3ccc(C(N)=O)cc3)nc3ccc(C(=O)NCCCN4CCN(c5ccccc5)CC4)cc32)C1 [CDD-2339] | 34.1
CNC(=O)[C@H]1C[C@H](n2c(-c3ccc(OC)c(OC)c3)nc3ccc(C(=O)NCCCN4CCN(c5cccc(C)c5C)CC4)cc32)C1 [CDD-2421] | 2.1

More lines, in order of falling Kd, values ahead:

Kd [nM] | SMILES
79 | COc1cc(-c2nc3ccc(C(=O)NCCC(=O)O)cc3n2C2CCC2)cc(OC)c1OC [CDD-2464]
15.4 | COc1cc(-c2nc3ccc(C(=O)NCCCO)cc3n2C2CCC2)cc(OC)c1OC [CDD-2465]
6.9 | CNC(=O)[C@H]1C[C@H](n2c(-c3cc(F)cc(OC)c3)nc3ccc(C(=O)NCCCN4CCN(c5ccccc5)CC4)cc32)C1 [CDD-2340]
5.6 | CNC(=O)[C@H]1C[C@H](n2c(-c3cccc(OC)c3)nc3ccc(C(=O)NCCCN4CCN(c5ccccc5)CC4)cc32)C1 [CDD-2313]
5.2 | CNC(=O)[C@H]1C[C@H](n2c(-c3cc(OC)c(OC)c(OC)c3)nc3ccc(C(=O)NCCCN(C)C)cc32)C1 [CDD-2281]
0.9 | CNC(=O)[C@H]1C[C@H](n2c(-c3cc(OC)ccc3OC)nc3ccc(C(=O)NCCCN4CCN(c5cccc(C)c5C)CC4)cc32)C1 [CDD-2420]
0.8 | COc1cc(-c2nc3ccc(C(=O)NCCCN4CCN(c5ccccc5)CC4)cc3n2C2CCC2)cc(OC)c1OC [CDD-2315]
